How the values were obtained:
Assay in all cases: biochemical
Conditions in all cases: read-out: Percent Control
BIKE = BIKE (Homo sapiens, UniProt Q9NSY1)
BRAF = BRAF (Homo sapiens, UniProt P15056)
CAMK1D = CAMK1D (Homo sapiens, UniProt Q8IU85)
CDKL3 = CDKL3 (Homo sapiens, UniProt Q8IVW4)
CHEK2 = CHEK2 (Homo sapiens, UniProt O96017)
CSNK1A1 = CSNK1A1 (Homo sapiens, UniProt P48729)
CTK = CTK (Homo sapiens, UniProt P42679)
DLK = DLK (Homo sapiens, UniProt Q12852)
DMPK = DMPK (Homo sapiens, UniProt Q09013)
DMPK2 = DMPK2 (Homo sapiens, UniProt Q6DT37)
EPHB6 = EPHB6 (Homo sapiens, UniProt O15197)
ERK3 = ERK3 (Homo sapiens, UniProt Q16659)
FGFR2 = FGFR2 (Homo sapiens, UniProt P21802)
FGFR3 = FGFR3 (Homo sapiens, UniProt P22607)
FLT1 = FLT1 (Homo sapiens, UniProt P17948)
FLT3(D835V) = FLT3(D835V) (Homo sapiens, UniProt P36888, D835V)
HCK = HCK (Homo sapiens, UniProt P08631)
HIPK1 = HIPK1 (Homo sapiens, UniProt Q86Z02)
HIPK4 = HIPK4 (Homo sapiens, UniProt Q8NE63)
[1] = target: JAK3(JH1domain-catalytic) (Homo sapiens, UniProt P52333)
MAP3K2 = MAP3K2 (Homo sapiens, UniProt Q9Y2U5)
MARK4 = MARK4 (Homo sapiens, UniProt Q96L34)
MET = MET (Homo sapiens, UniProt P08581)
MINK = MINK (Homo sapiens, UniProt Q8N4C8)
MRCKA = MRCKA (Homo sapiens, UniProt Q5VT25)
p38-alpha = p38-alpha (Homo sapiens, UniProt Q16539)
PFTAIRE2 = PFTAIRE2 (Homo sapiens, UniProt Q96Q40)
PIK3C2G = PIK3C2G (Homo sapiens, UniProt O75747)
PIK3CA(C420R) = PIK3CA(C420R) (Homo sapiens, UniProt P42336, C420R)
PIK3CG = PIK3CG (Homo sapiens, UniProt P48736)
PIP5K2C = PIP5K2C (Homo sapiens, UniProt Q8TBX8)
PRKR = PRKR (Homo sapiens, UniProt P19525)
RIPK1 = RIPK1 (Homo sapiens, UniProt Q13546)
RIPK2 = RIPK2 (Homo sapiens, UniProt O43353)
SgK110 = SgK110 (Homo sapiens, UniProt P0C264)
SLK = SLK (Homo sapiens, UniProt Q9H2G2)
SYK = SYK (Homo sapiens, UniProt P43405)
TAK1 = TAK1 (Homo sapiens, UniProt O43318)
TLK1 = TLK1 (Homo sapiens, UniProt Q9UKI8)
TNK1 = TNK1 (Homo sapiens, UniProt Q13470)
TRKB = TRKB (Homo sapiens, UniProt Q16620)
TRKC = TRKC (Homo sapiens, UniProt Q16288)
TXK = TXK (Homo sapiens, UniProt P42681)
WNK2 = WNK2 (Homo sapiens, UniProt Q9Y3S1)

Amino acid sequences for entries named in this document (tags omitted). A change or cut given only in a name is not applied to a line headed by its entry. Residues count along the entry.
UniProt P15056, whole entry: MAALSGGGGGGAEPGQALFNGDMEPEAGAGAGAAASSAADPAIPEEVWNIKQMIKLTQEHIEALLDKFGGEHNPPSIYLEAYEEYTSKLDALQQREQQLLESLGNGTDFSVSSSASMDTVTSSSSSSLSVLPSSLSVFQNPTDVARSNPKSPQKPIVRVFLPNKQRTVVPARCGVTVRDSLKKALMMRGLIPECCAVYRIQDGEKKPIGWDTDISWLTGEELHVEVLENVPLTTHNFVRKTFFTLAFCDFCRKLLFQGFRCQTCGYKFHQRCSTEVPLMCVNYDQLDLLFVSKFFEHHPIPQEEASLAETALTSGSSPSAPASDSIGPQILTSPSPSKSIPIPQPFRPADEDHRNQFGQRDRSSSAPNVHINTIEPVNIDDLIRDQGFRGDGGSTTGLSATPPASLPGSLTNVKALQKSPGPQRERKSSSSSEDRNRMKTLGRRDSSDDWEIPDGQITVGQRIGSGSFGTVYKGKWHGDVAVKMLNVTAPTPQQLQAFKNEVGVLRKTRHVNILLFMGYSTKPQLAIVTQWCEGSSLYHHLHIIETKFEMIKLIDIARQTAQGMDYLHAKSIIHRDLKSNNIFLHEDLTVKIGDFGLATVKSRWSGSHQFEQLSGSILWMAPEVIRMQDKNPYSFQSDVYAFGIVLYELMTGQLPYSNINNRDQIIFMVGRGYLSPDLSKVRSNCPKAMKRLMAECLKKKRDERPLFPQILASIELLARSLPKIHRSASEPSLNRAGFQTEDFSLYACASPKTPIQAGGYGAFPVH
UniProt Q12852: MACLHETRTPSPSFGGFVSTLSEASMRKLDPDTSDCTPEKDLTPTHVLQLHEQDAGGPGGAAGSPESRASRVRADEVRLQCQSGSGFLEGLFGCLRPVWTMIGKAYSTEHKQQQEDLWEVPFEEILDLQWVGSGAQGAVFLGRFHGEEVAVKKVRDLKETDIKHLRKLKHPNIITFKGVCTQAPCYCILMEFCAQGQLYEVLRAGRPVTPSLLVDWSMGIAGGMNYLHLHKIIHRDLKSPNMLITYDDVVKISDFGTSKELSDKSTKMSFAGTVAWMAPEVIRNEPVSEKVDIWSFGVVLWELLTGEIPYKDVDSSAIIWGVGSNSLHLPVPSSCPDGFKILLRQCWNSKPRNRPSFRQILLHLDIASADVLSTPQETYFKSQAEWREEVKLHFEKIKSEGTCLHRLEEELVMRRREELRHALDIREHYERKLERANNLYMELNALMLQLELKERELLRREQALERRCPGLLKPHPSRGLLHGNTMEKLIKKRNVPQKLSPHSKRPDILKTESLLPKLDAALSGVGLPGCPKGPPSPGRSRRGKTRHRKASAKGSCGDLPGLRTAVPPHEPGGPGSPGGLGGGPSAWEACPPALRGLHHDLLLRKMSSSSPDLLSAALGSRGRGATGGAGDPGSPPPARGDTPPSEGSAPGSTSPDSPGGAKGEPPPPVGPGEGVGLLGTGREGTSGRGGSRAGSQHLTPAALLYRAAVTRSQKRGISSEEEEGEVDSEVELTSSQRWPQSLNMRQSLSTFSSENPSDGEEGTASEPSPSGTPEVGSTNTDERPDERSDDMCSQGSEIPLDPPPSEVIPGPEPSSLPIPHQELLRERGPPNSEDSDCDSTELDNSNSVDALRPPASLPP
UniProt P22607, 23-806: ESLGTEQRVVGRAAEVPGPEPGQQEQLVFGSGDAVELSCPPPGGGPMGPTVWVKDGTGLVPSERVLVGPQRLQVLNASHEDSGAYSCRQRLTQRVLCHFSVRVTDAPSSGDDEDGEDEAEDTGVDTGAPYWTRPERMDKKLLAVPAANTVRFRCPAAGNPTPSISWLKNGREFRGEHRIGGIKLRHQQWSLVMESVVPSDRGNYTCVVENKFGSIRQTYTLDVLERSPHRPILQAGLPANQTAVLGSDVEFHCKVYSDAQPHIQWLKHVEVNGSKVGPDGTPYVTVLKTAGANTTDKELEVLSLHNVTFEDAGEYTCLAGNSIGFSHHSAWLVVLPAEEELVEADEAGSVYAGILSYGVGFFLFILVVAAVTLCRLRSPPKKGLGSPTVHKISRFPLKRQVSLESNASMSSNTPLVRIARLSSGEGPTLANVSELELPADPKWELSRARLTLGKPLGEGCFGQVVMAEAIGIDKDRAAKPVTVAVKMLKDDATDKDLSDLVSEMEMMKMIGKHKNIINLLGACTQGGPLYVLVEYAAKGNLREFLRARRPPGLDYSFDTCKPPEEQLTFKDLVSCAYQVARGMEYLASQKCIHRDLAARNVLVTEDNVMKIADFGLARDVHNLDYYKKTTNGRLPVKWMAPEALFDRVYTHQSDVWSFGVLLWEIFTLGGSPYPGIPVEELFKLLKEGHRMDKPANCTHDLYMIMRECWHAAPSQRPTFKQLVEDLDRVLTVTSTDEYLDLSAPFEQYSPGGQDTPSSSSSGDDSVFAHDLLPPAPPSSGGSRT
UniProt P52333, 822-1111 limits assumed: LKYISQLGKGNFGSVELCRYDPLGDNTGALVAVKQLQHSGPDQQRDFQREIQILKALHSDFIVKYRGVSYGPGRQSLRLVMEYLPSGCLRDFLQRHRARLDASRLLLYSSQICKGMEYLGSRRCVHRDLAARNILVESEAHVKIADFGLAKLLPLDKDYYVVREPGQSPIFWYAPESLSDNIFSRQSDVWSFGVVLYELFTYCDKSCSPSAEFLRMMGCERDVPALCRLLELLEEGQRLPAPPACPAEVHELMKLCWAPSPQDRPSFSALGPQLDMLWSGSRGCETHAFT
UniProt P08581, 25-1390: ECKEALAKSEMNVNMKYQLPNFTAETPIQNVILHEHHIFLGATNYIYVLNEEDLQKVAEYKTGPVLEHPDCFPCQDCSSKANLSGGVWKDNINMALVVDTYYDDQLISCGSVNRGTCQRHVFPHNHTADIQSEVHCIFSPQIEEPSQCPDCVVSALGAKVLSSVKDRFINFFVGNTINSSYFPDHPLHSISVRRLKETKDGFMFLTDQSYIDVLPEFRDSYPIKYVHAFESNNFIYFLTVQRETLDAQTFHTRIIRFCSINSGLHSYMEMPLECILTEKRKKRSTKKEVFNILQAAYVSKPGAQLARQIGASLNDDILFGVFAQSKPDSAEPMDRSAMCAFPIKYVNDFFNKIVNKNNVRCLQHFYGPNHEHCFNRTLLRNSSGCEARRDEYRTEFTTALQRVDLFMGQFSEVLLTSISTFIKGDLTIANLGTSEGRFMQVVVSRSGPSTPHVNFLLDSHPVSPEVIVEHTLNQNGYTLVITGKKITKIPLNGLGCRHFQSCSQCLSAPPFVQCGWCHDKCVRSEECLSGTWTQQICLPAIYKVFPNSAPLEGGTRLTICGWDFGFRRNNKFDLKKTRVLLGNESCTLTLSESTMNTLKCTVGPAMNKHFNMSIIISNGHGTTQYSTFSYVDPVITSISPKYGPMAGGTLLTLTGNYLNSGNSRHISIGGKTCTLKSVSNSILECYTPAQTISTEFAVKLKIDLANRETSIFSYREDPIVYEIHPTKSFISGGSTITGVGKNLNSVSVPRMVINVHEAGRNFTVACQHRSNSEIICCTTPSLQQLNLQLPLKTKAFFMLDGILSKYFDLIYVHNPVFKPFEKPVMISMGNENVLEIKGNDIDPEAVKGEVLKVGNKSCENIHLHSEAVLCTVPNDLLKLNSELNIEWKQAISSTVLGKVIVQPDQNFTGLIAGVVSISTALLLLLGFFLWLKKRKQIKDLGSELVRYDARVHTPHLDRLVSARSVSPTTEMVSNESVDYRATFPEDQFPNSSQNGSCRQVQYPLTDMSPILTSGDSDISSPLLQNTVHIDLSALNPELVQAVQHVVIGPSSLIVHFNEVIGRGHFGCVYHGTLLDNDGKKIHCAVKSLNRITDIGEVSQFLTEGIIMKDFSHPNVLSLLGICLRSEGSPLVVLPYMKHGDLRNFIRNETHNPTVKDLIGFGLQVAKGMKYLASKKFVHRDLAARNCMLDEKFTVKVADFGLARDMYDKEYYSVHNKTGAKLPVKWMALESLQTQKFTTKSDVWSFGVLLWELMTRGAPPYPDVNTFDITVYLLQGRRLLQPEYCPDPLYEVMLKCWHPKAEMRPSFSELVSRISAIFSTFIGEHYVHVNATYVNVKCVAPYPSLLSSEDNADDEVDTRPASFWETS
UniProt Q96Q40: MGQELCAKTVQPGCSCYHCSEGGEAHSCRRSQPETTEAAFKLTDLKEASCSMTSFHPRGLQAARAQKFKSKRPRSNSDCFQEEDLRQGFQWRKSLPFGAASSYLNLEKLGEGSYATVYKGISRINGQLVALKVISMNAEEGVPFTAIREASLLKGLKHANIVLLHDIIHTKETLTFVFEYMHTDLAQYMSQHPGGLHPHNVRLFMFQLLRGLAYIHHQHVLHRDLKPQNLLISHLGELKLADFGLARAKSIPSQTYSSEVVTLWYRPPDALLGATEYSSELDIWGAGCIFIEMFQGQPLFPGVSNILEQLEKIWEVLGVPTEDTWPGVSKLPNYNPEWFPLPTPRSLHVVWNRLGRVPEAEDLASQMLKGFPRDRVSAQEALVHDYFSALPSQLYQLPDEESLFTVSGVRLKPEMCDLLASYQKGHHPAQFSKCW
UniProt P42336, whole entry C420R: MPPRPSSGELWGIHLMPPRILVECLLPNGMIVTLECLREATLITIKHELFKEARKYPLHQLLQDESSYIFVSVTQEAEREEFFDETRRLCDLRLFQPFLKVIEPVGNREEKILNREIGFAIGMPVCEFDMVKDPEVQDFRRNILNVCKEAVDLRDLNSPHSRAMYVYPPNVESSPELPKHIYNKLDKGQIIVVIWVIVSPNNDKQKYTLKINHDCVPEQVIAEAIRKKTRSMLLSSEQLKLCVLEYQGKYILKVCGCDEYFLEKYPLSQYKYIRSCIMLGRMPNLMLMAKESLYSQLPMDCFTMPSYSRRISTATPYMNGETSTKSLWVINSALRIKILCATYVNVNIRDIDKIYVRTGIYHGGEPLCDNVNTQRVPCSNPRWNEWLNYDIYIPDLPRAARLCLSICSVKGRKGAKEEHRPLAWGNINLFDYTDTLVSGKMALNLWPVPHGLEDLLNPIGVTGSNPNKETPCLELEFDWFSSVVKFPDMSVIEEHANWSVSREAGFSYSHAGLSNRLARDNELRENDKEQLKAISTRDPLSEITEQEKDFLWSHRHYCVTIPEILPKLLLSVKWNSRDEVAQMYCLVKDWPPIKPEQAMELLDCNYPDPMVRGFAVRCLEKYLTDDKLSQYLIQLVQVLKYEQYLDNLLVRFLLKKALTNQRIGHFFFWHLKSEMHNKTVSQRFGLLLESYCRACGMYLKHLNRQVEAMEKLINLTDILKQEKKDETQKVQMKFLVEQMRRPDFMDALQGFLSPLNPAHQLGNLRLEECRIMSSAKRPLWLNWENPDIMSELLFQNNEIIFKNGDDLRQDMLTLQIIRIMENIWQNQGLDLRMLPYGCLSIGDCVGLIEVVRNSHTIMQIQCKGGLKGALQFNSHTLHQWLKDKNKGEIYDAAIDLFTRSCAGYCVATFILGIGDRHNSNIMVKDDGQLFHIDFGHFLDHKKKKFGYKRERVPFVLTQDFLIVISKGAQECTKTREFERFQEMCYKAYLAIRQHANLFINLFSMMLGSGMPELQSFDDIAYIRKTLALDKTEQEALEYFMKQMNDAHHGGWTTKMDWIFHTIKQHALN
UniProt Q8TBX8: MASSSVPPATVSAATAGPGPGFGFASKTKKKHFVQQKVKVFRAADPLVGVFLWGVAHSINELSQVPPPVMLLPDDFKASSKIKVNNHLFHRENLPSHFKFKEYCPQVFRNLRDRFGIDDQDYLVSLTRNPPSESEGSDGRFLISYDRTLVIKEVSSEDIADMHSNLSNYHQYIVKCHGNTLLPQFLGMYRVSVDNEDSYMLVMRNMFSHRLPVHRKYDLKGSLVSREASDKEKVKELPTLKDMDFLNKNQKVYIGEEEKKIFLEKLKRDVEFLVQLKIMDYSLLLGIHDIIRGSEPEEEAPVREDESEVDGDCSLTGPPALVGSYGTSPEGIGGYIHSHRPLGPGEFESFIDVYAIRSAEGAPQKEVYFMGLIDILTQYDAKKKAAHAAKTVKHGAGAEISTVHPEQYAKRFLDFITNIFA
UniProt O43318: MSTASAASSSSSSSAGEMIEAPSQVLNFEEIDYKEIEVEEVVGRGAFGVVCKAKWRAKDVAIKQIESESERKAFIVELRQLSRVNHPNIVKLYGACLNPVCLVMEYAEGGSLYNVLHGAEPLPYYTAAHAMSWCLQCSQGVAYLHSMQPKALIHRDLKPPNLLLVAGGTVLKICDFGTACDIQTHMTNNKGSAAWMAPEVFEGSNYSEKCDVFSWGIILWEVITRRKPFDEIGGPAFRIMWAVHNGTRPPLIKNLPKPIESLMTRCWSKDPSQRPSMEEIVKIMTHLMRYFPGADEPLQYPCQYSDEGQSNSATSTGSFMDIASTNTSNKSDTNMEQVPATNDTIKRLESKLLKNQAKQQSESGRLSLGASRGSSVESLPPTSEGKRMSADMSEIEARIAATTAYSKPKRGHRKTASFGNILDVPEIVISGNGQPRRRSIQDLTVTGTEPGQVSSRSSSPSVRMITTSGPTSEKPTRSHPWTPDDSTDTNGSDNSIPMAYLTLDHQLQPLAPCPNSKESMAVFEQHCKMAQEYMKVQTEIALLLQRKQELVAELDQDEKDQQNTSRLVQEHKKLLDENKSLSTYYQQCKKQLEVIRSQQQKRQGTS

COc1cc2c(Nc3ccc(Cl)c(OC)n3)c(C#N)cnc2cc1OCCON1CCN(C)CC1 [16a, 4-((5-Chloro-6-methoxypyridin-2-yl)amino)-6-methoxy-7-(2-((4-methylpiperazin-1-yl)oxy)ethoxy)quinoline-3-carbonitrile]
remaining activity at 1 µM (BIKE): 1.2%
remaining activity at 1 µM (BRAF): 100%
remaining activity at 1 µM (CAMK1D): 2%
remaining activity at 1 µM (CDKL3): 76%
remaining activity at 1 µM (CHEK2): 0.75%
remaining activity at 1 µM (CSNK1A1): 2%
remaining activity at 1 µM (CTK): 100%
remaining activity at 1 µM (DLK): 11%
remaining activity at 1 µM (DMPK): 3.3%
remaining activity at 1 µM (DMPK2): 31%
remaining activity at 1 µM (EPHB6): 73%
remaining activity at 1 µM (ERK3): 49%
remaining activity at 1 µM (FGFR2): 81%
remaining activity at 1 µM (FGFR3): 86%
remaining activity at 1 µM (FLT1): 61%
remaining activity at 1 µM (FLT3(D835V)): 0%
remaining activity at 1 µM (HCK): 0.6%
remaining activity at 1 µM (HIPK1): 16%
remaining activity at 1 µM (HIPK4): 2.5%
remaining activity at 1 µM [1]: 3.1%
remaining activity at 1 µM (MAP3K2): 0.55%
remaining activity at 1 µM (MARK4): 60%
remaining activity at 1 µM (MET): 41%
remaining activity at 1 µM (MINK): 3.8%
remaining activity at 1 µM (MRCKA): 88%
remaining activity at 1 µM (p38-alpha): 50%
remaining activity at 1 µM (PFTAIRE2): 65%
remaining activity at 1 µM (PIK3C2G): 76%
remaining activity at 1 µM (PIK3CA(C420R)): 100%
remaining activity at 1 µM (PIK3CG): 97%
remaining activity at 1 µM (PIP5K2C): 64%
remaining activity at 1 µM (PRKR): 64%
remaining activity at 1 µM (RIPK1): 100%
remaining activity at 1 µM (RIPK2): 79%
remaining activity at 1 µM (SgK110): 100%
remaining activity at 1 µM (SLK): 0.2%
remaining activity at 1 µM (SYK): 3.6%
remaining activity at 1 µM (TAK1): 0.1%
remaining activity at 1 µM (TLK1): 55%
remaining activity at 1 µM (TNK1): 74%
remaining activity at 1 µM (TRKB): 69%
remaining activity at 1 µM (TRKC): 100%
remaining activity at 1 µM (TXK): 2.3%
remaining activity at 1 µM (WNK2): 64%

Reference: publication PMC11472320, “Computationally Driven Discovery of a BCR-ABL1 Kinase Inhibitor with Activity in Multidrug-Resistant Chronic Myeloid Leukemia” (Journal of Medicinal Chemistry, 2024)
